US20240287470A1 (priority 2023, published 2024)

System: HEK293 cells
Details: MgSO4 as modifier to octoxynol-9/DB lysis and flocculation; both low (37 mM) and high (120 mM) concentrations

Compound: O=S(=O)([O-])[O-].[Mg+2] [MgSO4, magnesium sulfate]
- increase in productivity: ~2 fold
